Rango-impB inh: prevents formation of the Rango-importin beta complex; 340,000 tested, 0.031% active; Q14974; AID 540263; Rango CFP/YFP FRET sensor + importin beta, 45 min; Potency, µM (top dose mostly 92.2 µM), for inactives: top-dose inhibition of complex formation; calls by dose curve;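 further: 0% = DMSO wells and 100% = buffer wells lacking importin beta; nearly all actives have a fitted effect of over 15% in size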
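Inhibition scored from the CFP 486 nm/YFP 530 nm FRET ratio 45 min after adding 0.125 microM importin beta to 50 nM Rango biosensor preincubated 5 min with compound (room temperature, PBS with DTT, Tween-20, BSA). No-importin wells as positive control.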
TDP-43 yeast inh: rescues yeast growth from TDP-43 toxicity. TDP-43 expressing yeast growth rescue, BacTiter-Glo, 24 h. Potency, µM (highest dose often 46.1 µM), for the others: at the highest dose growth rescue (activation), actives largely listed as activators. 410,000 tested, 1.8% active. AID 652104; further: % of control where 0% means no effect; nearly all actives have a fitted effect of over 50% in size
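Galactose-induced TDP-43 yeast, OD600=0.02, compound pinned; 24 hr, 30 deg C; BacTiter-Glo luminescence for growth. Inhibitors of TDP-43 toxicity read as activators.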
aSyn rescue: alpha-synuclein toxicity inhibition in yeast; AID 652106; Potency, µM (top dose mostly 46.1 µM), without a hit: at the highest dose growth rescue (activation), usual class: activators; 370,000 tested, 0.14% active; Yeast expressing alpha-synuclein, growth rescue, BacTiter-Glo, 24 h; further: % of control where 0% means no effect; nearly all actives have a fitted effect of over 65% in size
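Rescue of yeast growth: cells expressing toxic alpha-synuclein, induced in galactose at OD600 0.02, incubated with compound 24 h at 30 C. ATP luminescence quantified growth; inhibitors of toxicity appear as activators.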
Abeta yeast res: compounds reversing amyloid beta toxicity in yeast; yeast expressing A-beta42, growth rescue, OD600, 48 h; response scale: 0% DMSO, 100% iron-clioquinol control; Potency, µM (highest dose often 46.1 µM), usual class: activators; 410,000 tested, 0.063% active; further: nearly all actives have a fitted effect of over 55% in size
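Yeast A-beta toxicity model in growth medium with pinned compounds, 48 h at 30 C; growth read as absorbance at 600 nm. Normalized to FeCl3/clioquinol equimolar mix (positive) and DMSO (negative).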
Rango dissoc inh: inhibitors of RanGTP-induced Rango-importin beta complex dissociation. O95149+P62826. Biochemical FRET Rango-importin beta, RanGTP-induced dissociation. Potency, µM (doses to about 46.1 µM), for the others: at the top dose activity change, negative = inhibition. 340,000 tested, 0.071% active. AID 540253; calls by dose curve; further: % of control where 0% means no effect; nearly all actives have a fitted effect of over 45% in size
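Rango FRET biosensor (snurportin-1 IBB flanked by N-terminal EYFP and C-terminal CFP10) at 0.1 uM, with 0.25 uM importin beta in PBS, 1mM DTT, 0.02% Tween-20, 0.1% BSA. 0.6 uM Ran, 2mM GTP and 0.2 uM RCC1 were then added for 45 min at room temperature. Inhibition read as loss of FRET rise.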
ASM inhibitor: inhibitors of human secretory acid sphingomyelinase; P17405; placental ASM, HMU-PC fluorogenic substrate, 60 min; Potency, µM (doses to about 57.5 µM), inactives show at the highest dose activity change, negative = inhibition, most hits filed as inhibitors; 340,000 tested, 0.006% active; AID 504937
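Human placenta-derived ASM enzyme was preincubated with compound for 10 minutes at room temperature, then given fluorogenic substrate HMU-PC0 (9 uM final) for 60 minutes at 37 °C; a pH 10 stop preceded fluorescence reading at Ex 386/Em 447 nm.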
* = called active by the depositor; i = inactive; ? = inconclusive; . = not tested or not shown; [ ] = another dose, or the depositor's remark. Hits are enriched below; roughly 2% of the tested compounds scored in any of these assays. Unless noted, the call rests on the fitted dose curve; in most records, active means well fitted curve in the direction sought with a large enough effect; inconclusive means small, poorly fitted or top-dose-only effect, or another doubt; inactive means no such curve, though single readings can be large; an effect the other way counts as inactive or inconclusive. Potency means the concentration at half of the fitted maximal effect.

nr | SMILES | Rango dissoc inh | Abeta yeast res | Rango-impB inh
1 | C=CCNC(=O)/C(C#N)=C/c1cc(Br)ccc1OC | -9.9% | i | 5.7%
2 | CCCn1nnc(NC(=O)c2ccc(-c3cccc(Cl)c3)o2)n1 | 0.3% | i | 4.5%
3 | CCCCn1nnc(NC(=O)c2ccc(-c3cccc(Cl)c3)o2)n1 | -4.6% | i | 3.6%
4 | COC(=O)CSc1nc2sc3c(c2c(=O)n1-c1ccccc1C)CC(C)(C)OC3 | . | i | .
5 | COc1ccc(NC(=O)c2cc(C)nc3c2c(C)nn3-c2ccc(C)cc2)cc1OC | . | i | .
6 | COc1ccc(-c2csc(C(O)c3ccc(F)c(OC)c3)n2)cn1 (stereo not given) | . | i | .
7 | COc1ccc(-c2csc(C(O)c3ccc(F)c(F)c3)n2)cn1 (stereo not given) | . | ? | .
8 | CCCc1cc(N2CCN(c3cc(Cl)ccc3C)CC2)n2cnnc2n1 | . | i | .

nr | aSyn rescue | TDP-43 yeast inh | ASM inhibitor
1 | -1.1% | 11.2µM* | 3.8%
2 | 6.1% | 12.6µM* | -2.0%
3 | 0.3% | -3.7% | -15.7%
4 | -8.8% | 6.8% | .
5 | . | 1.9%[9.22 µM] | .
6 | 19.3% | 35.5µM* | .
7 | ? | 22.4µM* | .
8 | . | ? | .

Next part.
nr | SMILES | Rango dissoc inh | Abeta yeast res | Rango-impB inh
9 | N#Cc1nc(COc2ccc(F)cc2)oc1N1CCCC1 | 15.1% | i | -0.3%
10 | Cc1cccc(OCc2nc(C#N)c(NCc3ccccc3Cl)o2)c1 | . | i | .
11 | N#Cc1nc(COc2cccc(Cl)c2)oc1N1CCCC1 | 34.8% | i | 4.1%
12 | Cc1[nH]c2ccccc2c1N=Nc1cccc(C(=O)O)c1 | -16.6% | i | 5.8%
13 | COC(=O)c1cc(N=Nc2c(C)[nH]c3ccccc23)cc(C(=O)OC)c1 | 17.4% | i | 4.4%
14 | Cc1nc(N2CCCCC2)c2c(-c3cccs3)csc2n1 | 0.8% | i | 0.1%
15 | CC(C)Cn1cc(C(=O)N2CCN(c3cccc(Cl)c3)CC2)c2c3ccccc3n(C)c2c1=O | . | i | .
16 | O=C(COC(=O)c1ccc2ncsc2c1)Nc1cc(Cl)ccc1F | -3.4% | i | 0.1%

nr | aSyn rescue | TDP-43 yeast inh | ASM inhibitor
9 | 20.6% | 0.0% | 0.0%
10 | . | 28.2µM* | .
11 | 7.5% | 14.1µM* | -1.7%
12 | -59.4% | 17.8µM* | -2.9%
13 | 1.1% | 0.4% | -10.2%
14 | -16.8% | 15.8µM* | -4.8%
15 | . | -9.7% | .
16 | -2.6% | 14.1µM* | .

Continuation.
nr | SMILES | Rango dissoc inh | Abeta yeast res | Rango-impB inh
17 | O=C(COC(=O)c1ccc2ncsc2c1)Nc1ncc(Cl)cc1Cl | -11.4% | i | -2.9%
18 | CN(C)c1nc2sc3c(c2c(=O)n1C)CC(C)(C)OC3 | -0.8% | i | 1.5%
19 | CNc1nc2sc3c(c2c(=O)n1C)CC(C)(C)SC3 | -7.1% | i | -1.0%
20 | Cc1cccc(NC(=O)CSc2nc(C3CCCC3)nc3c2c(=O)n(C)c(=O)n3C)c1C | . | i | .
21 | Cc1cc2c(c(Sc3ccccc3)n1)C(=O)OC2 | 3.6% | i | 4.8%
22 | Cc1cc2c(c(SCC(=O)N(C)c3ccccc3)n1)C(=O)OC2 | -1.6% | i | -1.7%
23 | COc1ccccc1N1CCN(S(=O)(=O)CCNC(=O)COc2ccc(C(C)C)cc2)CC1 | . | ? | .
24 | COc1ccc(Cl)cc1C(=O)NCCS(=O)(=O)N1CCN(c2ccccc2OC)CC1 | . | i | .

nr | aSyn rescue | TDP-43 yeast inh | ASM inhibitor
17 | -4.0% | -20.4% | 0.1%
18 | 2.3% | 3.5% | -1.9%
19 | 3.7% | 12.6µM* | 32.9%
20 | . | 16.0% | .
21 | . | 3.16µM* | 0.4%
22 | -3.2% | -0.7% | -0.1%
23 | . | 15.8µM* | .
24 | . | 11.2µM* | .

Further structures.
nr | SMILES | Rango dissoc inh | Abeta yeast res | Rango-impB inh
25 | CCc1ccccc1NC(=O)c1ccc(F)c(S(=O)(=O)N2CCN(c3ccccc3OC)CC2)c1 | . | 8.91µM* | .
26 | COc1ccc(OC)c(NC(=O)Nc2c(O)ccc3ccccc23)c1 | -6.3% | i | -0.5%
27 | COc1ccc(OC)c(C(=O)Nc2c(O)ccc3ccccc23)c1 | -9.4% | i | ?
28 | C(=Nc1ccc(/C=C/c2ccnc3ccccc23)cc1)c1ccc2c(c1)OCO2 | . | . | .
29 | O=C(O)COc1ccc(/C=N/NC(=O)c2ccc(-c3csc(Nc4ccc(Cl)cc4)n3)cc2)cc1 | -15.5% | i | 51.7µM*
30 | CCOC(=O)c1cnc(Nc2ccccc2)nc1C(F)(F)F | -3.0% | i | 1.5%
31 | CCOC(=O)c1cnc(-c2ccccc2)nc1C(F)(F)F | 1.5% | i | -4.5%
32 | O=C1C=C(c2ccc(CO)cc2)C[C@@H](c2ccc3c(c2)OCO3)C1 | -13.6% | i | 1.0%

nr | aSyn rescue | TDP-43 yeast inh | ASM inhibitor
25 | . | 23.2% | .
26 | -0.2% | 17.4% | 13.5%
27 | 1.2% | 11.2µM* | 1.5%
28 | -4.4% | . | .
29 | 1.4% | -6.7% | 82.5%
30 | -0.2% | 17.8µM* | -0.9%
31 | 1.0% | 5.4% | 5.4%
32 | -0.7% | 12.6µM* | -1.9%

Further entries:
nr | SMILES | Rango dissoc inh | Abeta yeast res | Rango-impB inh
33 | O=C1C=C(c2cccc(Br)c2)C[C@@H](c2ccc3c(c2)OCO3)C1 | -15.0% | i | 0.8%
34 | O=C1C=C(c2ccc(F)nc2)C[C@@H](c2ccc3c(c2)OCO3)C1 | 11.1% | i | 3.6%
35 | O=C1C=C(c2cnc3ccccc3c2)C[C@@H](c2ccc3c(c2)OCO3)C1 | 5.6% | i | 0.9%
36 | O=C1C=C(c2cccc(Cl)c2)C[C@@H](c2ccc3c(c2)OCO3)C1 | 0.9% | i | -1.5%
37 | C(=Nc1ccc(/C=C/c2ccnc3ccccc23)cc1)c1cccs1 | . | . | .
38 | COc1ccc(Br)cc1CNC(=O)c1ccc2c(c1)nc1n2CCCCC1 | . | i | .
39 | Cc1cc(C)c2c(-n3cccc3)c(C(=O)NCc3cccc(F)c3)sc2n1 | . | i | .
40 | COc1cccc(C2=CC(=O)C[C@H](c3ccc4c(c3)OCO4)C2)c1 | -11.3% | i | 8.4%

nr | aSyn rescue | TDP-43 yeast inh | ASM inhibitor
33 | 13.4% | 11.2µM* | -2.3%
34 | 8.3% | 12.6µM* | 1.3%
35 | 6.0% | 15.8µM* | -12.2%
36 | 13.0% | ? | -1.8%
37 | -4.0% | . | .
38 | . | 6.6% | .
39 | . | 21.7% | .
40 | 0.1% | 17.8µM* | 0.5%

Next entries follow:
nr | SMILES | Rango dissoc inh | Abeta yeast res | Rango-impB inh
41 | O=C1C=C(c2ccccc2)C[C@@H](c2ccc3c(c2)OCO3)C1 | 9.4% | i | 2.6%
42 | CCCCC/C=C/C1=CC(=O)C[C@H](c2ccc3c(c2)OCO3)C1 | 29.5% | i | ?
43 | O=C1C=C(c2ccc(-c3ccccc3)cc2)C[C@@H](c2ccc3c(c2)OCO3)C1 | -4.7% | i | -0.8%
44 | COC/C=C/C1=CC(=O)C[C@H](c2ccc3c(c2)OCO3)C1 | 11.5% | i | 0.3%
45 | COc1ccc([C@H]2CC(=O)C=C(c3ccc4c(c3)OCO4)C2)cc1OC | -8.5% | i | -3.3%
46 | O=C(COC(=O)c1nc(Cl)ccc1Cl)NCc1ccc(Cl)cc1 | 31.7% | i | -0.4%
47 | O=C(COC(=O)c1nc(Cl)ccc1Cl)NCc1ccc(Cl)cc1Cl | 1.5% | i | -1.4%

nr | aSyn rescue | TDP-43 yeast inh | ASM inhibitor
41 | 1.2% | 20µM* | -2.0%
42 | -7.7% | 24.3% | -7.8%
43 | 1.3% | 11.9% | -0.2%
44 | 1.7% | 14.1µM* | -7.1%
45 | -0.7% | 15.6% | 14.4%
46 | 5.4% | 17.8µM* | -1.8%
47 | 14.0% | ? | -1.9%

Fetched by compound from above:
nr | SMILES | Rango dissoc inh | Abeta yeast res | Rango-impB inh
26 | COc1ccc(OC)c(NC(=O)Nc2c(O)ccc3ccccc23)c1 | -6.3% | i | -0.5%
43 | O=C1C=C(c2ccc(-c3ccccc3)cc2)C[C@@H](c2ccc3c(c2)OCO3)C1 | -4.7% | i | -0.8%
46 | O=C(COC(=O)c1nc(Cl)ccc1Cl)NCc1ccc(Cl)cc1 | 31.7% | i | -0.4%
9 | N#Cc1nc(COc2ccc(F)cc2)oc1N1CCCC1 | 15.1% | i | -0.3%
13 | COC(=O)c1cc(N=Nc2c(C)[nH]c3ccccc23)cc(C(=O)OC)c1 | 17.4% | i | 4.4%

nr | aSyn rescue | TDP-43 yeast inh | ASM inhibitor
26 | -0.2% | 17.4% | 13.5%
43 | 1.3% | 11.9% | -0.2%
46 | 5.4% | 17.8µM* | -1.8%
9 | 20.6% | 0.0% | 0.0%
13 | 1.1% | 0.4% | -10.2%

Screening data (PubChem BioAssay)
